Test results from PubChem BioAssay (NCATS).
Several values for one entry are separate records, joined by “and”; a condition that tells them apart may be missing. Identical values can stand only once. The list shows a part of the results, in another mix than the full data. Inconclusive results are not listed. Activity calls are given as the source filed them. Unless noted, calls come from the whole dose curve; as a rule, active = well fitted curve in the direction sought with a large enough effect; inconclusive = small, poorly fitted or top-dose-only effect, or another doubt; inactive = no such curve, though single readings can be large; an effect the other way counts as inactive or inconclusive.

By UniProt entry, the sequences of proteins in these tests, tags left out. Where a name states a change or a piece, a line headed by the entry shows the natural chain unless it says otherwise.
UniProt P78324, whole entry, looked up: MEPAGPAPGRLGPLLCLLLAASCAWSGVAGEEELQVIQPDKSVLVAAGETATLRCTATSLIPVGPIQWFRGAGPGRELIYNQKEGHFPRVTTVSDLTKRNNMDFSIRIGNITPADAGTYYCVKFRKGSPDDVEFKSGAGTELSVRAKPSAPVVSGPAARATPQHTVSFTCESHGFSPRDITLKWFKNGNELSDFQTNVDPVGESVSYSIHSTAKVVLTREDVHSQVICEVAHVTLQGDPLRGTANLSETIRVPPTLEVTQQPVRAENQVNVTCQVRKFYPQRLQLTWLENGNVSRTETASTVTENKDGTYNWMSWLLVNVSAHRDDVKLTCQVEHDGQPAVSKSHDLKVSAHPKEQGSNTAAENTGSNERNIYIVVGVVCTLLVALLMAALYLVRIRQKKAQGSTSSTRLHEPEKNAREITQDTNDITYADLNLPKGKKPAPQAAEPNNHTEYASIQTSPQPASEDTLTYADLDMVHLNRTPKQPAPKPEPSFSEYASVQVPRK
UniProt Q08722, whole entry, looked up: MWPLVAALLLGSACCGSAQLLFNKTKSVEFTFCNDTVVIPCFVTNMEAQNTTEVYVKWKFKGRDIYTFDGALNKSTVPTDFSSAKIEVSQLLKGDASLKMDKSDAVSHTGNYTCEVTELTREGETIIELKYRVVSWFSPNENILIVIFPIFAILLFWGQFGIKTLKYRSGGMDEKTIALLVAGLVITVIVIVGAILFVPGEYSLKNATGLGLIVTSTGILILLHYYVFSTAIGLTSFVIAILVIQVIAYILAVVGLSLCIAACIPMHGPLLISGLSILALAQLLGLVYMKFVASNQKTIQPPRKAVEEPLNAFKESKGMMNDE
UniProt Q03431: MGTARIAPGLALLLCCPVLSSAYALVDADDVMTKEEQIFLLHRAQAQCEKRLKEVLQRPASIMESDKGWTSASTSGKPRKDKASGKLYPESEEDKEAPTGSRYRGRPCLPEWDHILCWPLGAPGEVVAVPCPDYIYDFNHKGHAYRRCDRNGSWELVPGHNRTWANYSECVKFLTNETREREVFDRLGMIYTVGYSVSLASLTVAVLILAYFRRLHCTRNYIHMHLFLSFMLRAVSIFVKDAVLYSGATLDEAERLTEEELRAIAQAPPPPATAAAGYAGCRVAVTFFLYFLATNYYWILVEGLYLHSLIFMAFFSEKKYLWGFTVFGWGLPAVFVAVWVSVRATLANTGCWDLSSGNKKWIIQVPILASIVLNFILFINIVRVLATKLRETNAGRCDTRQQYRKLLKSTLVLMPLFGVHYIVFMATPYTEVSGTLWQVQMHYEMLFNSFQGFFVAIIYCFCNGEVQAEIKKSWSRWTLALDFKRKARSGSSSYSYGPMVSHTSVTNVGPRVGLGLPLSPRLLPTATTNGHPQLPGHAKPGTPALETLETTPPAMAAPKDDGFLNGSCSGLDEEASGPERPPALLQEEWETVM
UniProt Q9BV86: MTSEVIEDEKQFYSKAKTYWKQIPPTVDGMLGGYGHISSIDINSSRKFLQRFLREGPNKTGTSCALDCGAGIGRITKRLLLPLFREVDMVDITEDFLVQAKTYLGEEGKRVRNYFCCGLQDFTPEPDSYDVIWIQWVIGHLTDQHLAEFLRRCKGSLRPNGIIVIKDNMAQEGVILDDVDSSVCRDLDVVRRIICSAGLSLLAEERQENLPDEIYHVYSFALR
UniProt Q9UGL1: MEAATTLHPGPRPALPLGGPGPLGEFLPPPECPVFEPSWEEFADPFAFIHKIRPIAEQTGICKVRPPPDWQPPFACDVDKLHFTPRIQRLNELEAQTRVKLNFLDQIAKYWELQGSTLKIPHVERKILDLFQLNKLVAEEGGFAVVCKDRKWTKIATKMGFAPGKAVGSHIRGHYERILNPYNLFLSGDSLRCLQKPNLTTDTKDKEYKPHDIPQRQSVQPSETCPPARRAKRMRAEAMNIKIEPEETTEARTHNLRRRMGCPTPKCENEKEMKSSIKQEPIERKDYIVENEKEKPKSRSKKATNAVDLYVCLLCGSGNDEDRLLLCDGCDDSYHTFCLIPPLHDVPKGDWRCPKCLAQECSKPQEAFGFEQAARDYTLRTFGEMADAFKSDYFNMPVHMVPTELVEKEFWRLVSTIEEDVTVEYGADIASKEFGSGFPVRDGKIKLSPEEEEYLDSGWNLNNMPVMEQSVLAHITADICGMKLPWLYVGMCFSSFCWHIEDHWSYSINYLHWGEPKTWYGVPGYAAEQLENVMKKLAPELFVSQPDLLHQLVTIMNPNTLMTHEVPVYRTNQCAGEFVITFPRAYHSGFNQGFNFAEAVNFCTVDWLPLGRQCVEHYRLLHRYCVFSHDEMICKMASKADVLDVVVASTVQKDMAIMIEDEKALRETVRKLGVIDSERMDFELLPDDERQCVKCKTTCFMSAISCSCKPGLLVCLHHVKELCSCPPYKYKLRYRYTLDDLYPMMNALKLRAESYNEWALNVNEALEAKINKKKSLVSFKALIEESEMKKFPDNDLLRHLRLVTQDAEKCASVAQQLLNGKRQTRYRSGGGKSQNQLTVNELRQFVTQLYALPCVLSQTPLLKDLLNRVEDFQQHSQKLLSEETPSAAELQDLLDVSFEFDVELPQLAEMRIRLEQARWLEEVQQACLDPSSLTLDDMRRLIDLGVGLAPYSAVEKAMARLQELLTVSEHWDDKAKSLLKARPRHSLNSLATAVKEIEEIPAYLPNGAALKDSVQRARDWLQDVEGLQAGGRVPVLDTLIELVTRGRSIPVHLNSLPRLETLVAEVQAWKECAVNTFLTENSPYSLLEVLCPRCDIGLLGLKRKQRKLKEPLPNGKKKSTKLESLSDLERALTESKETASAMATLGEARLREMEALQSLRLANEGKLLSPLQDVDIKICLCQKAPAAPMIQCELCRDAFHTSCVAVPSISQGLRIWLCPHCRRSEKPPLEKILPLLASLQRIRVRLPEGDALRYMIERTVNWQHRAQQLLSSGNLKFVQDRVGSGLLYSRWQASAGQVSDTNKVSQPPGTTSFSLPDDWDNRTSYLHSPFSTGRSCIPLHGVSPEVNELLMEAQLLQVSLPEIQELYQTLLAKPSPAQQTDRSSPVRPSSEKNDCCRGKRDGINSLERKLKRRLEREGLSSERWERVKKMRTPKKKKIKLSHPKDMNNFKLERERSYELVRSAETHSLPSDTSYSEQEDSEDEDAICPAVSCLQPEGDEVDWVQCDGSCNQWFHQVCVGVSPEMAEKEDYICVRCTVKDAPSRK
UniProt Q9GZX7: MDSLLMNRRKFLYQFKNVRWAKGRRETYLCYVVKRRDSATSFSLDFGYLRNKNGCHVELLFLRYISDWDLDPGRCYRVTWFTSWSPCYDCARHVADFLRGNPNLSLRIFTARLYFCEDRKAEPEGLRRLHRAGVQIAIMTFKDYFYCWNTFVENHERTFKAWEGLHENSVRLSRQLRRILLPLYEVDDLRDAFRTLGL
UniProt Q99828: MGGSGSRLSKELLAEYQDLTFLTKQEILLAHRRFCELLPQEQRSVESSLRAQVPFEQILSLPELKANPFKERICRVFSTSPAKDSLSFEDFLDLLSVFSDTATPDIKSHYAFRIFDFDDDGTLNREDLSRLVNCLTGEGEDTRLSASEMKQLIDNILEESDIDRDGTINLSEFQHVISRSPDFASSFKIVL
UniProt C7C422: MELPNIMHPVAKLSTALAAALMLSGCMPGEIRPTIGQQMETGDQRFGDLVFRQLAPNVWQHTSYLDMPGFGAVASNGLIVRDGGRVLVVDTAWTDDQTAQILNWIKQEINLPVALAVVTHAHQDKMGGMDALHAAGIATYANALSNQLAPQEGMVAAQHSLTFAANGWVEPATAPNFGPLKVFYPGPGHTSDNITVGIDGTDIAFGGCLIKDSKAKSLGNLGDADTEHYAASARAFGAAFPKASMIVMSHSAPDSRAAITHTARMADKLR
UniProt P07203, whole entry, looked up: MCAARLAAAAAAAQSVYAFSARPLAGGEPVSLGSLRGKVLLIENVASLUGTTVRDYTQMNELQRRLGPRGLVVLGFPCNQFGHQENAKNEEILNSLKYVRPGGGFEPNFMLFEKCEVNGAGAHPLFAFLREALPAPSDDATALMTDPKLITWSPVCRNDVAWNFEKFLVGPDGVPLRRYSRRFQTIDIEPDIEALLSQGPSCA
UniProt P36969, whole entry, looked up: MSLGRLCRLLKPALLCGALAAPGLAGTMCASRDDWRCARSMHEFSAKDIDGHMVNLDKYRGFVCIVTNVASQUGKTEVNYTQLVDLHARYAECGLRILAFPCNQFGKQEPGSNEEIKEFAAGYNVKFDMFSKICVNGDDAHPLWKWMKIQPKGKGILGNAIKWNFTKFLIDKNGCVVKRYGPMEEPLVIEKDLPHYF

Key:
[1] = target: T1, Tyrosine-protein phosphatase non-receptor type substrate 1 (Homo sapiens) + Leukocyte surface antigen CD47 (Homo sapiens) (UniProt P78324+Q08722); assay: CD47-SIRPalpha protein protein interaction - LANCE assay qHTS validation (AID 1347057; active = well fitted curve in the direction sought with a large enough effect in the signal ratio, with a control signal flat, not every such curve was filed as active; the % refers to the signal ratio; note: 0% is about no effect); settings: Recombinant CD47-His / biotin-SIRPalpha, TR-FRET ratio; at 38.3 µM (top of the series)
Procedure, shortened: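 Inhibition of soluble CD47/SIRPalpha ectodomain association by titrated compounds, measured as 665/615 nm time-resolved FRET ratio after sequential 30 min room-temperature incubations.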

[2] = target: T1, Tyrosine-protein phosphatase non-receptor type substrate 1 (Homo sapiens) + Leukocyte surface antigen CD47 (Homo sapiens); assay: CD47-SIRPalpha protein protein interaction - HTRF assay qHTS validation (AID 1347058; active = well fitted curve in the direction sought with a large enough effect in the signal ratio, not every such curve was filed as active; the % refers to the signal ratio; note: 0% is about no effect); settings: TR-FRET HTRF CD47-His / biotin-SIRPalpha binding, ratio 665/615; at 38.3 µM (top of the series)
Procedure, shortened: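 Soluble extracellular domains (6His-CD47, Avi-tag-biotinylated SIRPalpha) in PBS pH 7.4 with 0.05% IGEPAL CA-630. Compounds were preincubated 30 min at RT with CD47 and anti-His-Eu, then SIRPalpha and SAV-XL665 were added. TR-FRET 665/615 ratio.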

[3] = target: T1, Tyrosine-protein phosphatase non-receptor type substrate 1 (Homo sapiens) + Leukocyte surface antigen CD47 (Homo sapiens); assay: CD47-SIRPalpha protein protein interaction - Alpha assay qHTS validation (AID 1347059); settings: AlphaScreen CD47-His/biotin-SIRPalpha binding, LOPAC; at 38.3 µM (top of the series);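 note: bead proximity luminescence from CD47 binding SIRPalpha after compound preincubation with SIRPalpha; % is set by controls: 0 for no effect and ±100 for the full control effect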
Procedure, shortened: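 AlphaScreen signal between CD47-His (12.5 nM) and biotin-SIRPalpha (25 nM) soluble extracellular domains, bead-captured via Ni-NTA and streptavidin. Compounds, in 7-point titrations, met SIRPalpha 30 min before CD47; PBS pH 7.4 with 0.05% IGEPAL.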

[4] = target: Parathyroid hormone/parathyroid hormone-related peptide receptor (Homo sapiens) (UniProt Q03431); assay: qHTS for PTHR1 Agonists: Optimization Screen against the NCGC LOPAC library (AID 1347079); settings: HEK293 GP2 PTHR1 GloSensor cAMP luminescence, 1 h; at 57.1 µM (top of the series);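 note: GloSensor cAMP luminescence in HEK-293 GP2 cells expressing human PTHR1 with IBMX; 0% is about no effect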
Procedure, shortened: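 Signal increase flags agonism. GP2 cells, derived from HEK-293, express human PTHR1 and a GloSensor cAMP construct.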

[5] = target: N-terminal Xaa-Pro-Lys N-methyltransferase 1 (Homo sapiens) (UniProt Q9BV86); assay: qHTS Assay for Inhibitors of N-terminal methyltransferase 1 (NTMT1): LOPAC validation of the NTMT1 SAHH-coupled ThioGlo3 Assay (AID 1347143); settings: recombinant NTMT1, SAHH-coupled ThioGlo3 fluorescence; at 114 µM (top of the series);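 note: SAH from peptide methylation measured as thiol fluorescence via SAHH coupling and ThioGlo3; % is set by controls: 0 for no effect and ±100 for the full control effect; nearly all actives have a fitted effect of over 70% in size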
Procedure, shortened: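 NTMT1 125nM + cpds (various conc.), 1 min RT; add SAM 100uM/SAHH 10uM/ThioGlo3 15uM (addition mix). SAHH-coupled thiol detection, Ex340/Em450, t0 and 30 min RT; signal normalized to background. LOPAC 1280-cpd pilot.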

[6] = target: Lysine-specific demethylase 5B (Homo sapiens) (UniProt Q9UGL1); assay: Optimization screen for KDM5B Histone Demethylases FDH coupled qHTS against the LOPAC library (AID 1347166); settings: KDM5B demethylation, FDH-coupled NADH fluorescence (FDH is formaldehyde dehydrogenase); at 57.5 µM (top of the series); note: 0% is about no effect
Procedure, shortened: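 KDM5BDeltaAP (200nM final) in 50mM HEPES pH 7.5, 0.01% Tween-20 was preincubated with compound for 10 min at room temperature. A substrate mix of 12.5uM H3K4Me3, 25uM a-ketoglutarate, ascorbate, Fe2+, NAD+ and formaldehyde dehydrogenase was then added. NADH fluorescence (340/450 nm) was read initially and after 30 min.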

[7] = qHTS to identify inhibitors of the type 1 interferon - major histocompatibility complex class I in skeletal muscle: primary screen against the NCATS LOPAC collection (AID 1347405); settings: iHSKM muscle cells, IFN-b-induced MHC-I HiBiT luminescence, 24 h; at 45.9 µM (top of the series);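 note: human myoblasts with HiBiT tag on endogenous HLA-B stimulated by IFN-beta; lytic HiBiT luminescence reporting HLA-B protein level; % is set by controls: 0 for no effect and ±100 for the full control effect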
Procedure, shortened: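 IFN-beta-stimulated (4 ng/ml) HLA-B HiBiT knock-in myoblasts, compound-treated 24 hrs up to 46 uM final; signal via LgBiT complementation and furimazine luminescence.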

[8] = qHTS for inhibitors of adenylyl cyclases using a fission yeast platform: a pilot screen against the NCATS LOPAC library (AID 1347410);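 note: plate controls were DMSO vehicle for no effect and DPI positive control for full effect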; settings: S. pombe CHP2027, fbp1-GFP fluorescence, 18 h, yeast expressing mammalian AC9 and human GNAS; at 57.5 µM (top of the series)
Procedure, shortened: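 GFP from fbp1-GFP reporter, read by Acumen laser cytometry, indicates AC inhibition in fission yeast expressing AC9, GNAS and PDE4D2. Cells grown 18 h in the dark at 30C with compounds, final up to 57 uM.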

[9] = Validation qHTS assay for inhibitors of Activation Induced Cytidine Deaminase (AID): UDG Counterscreen signal (AID 1347427); settings: biochemical UDG counterscreen, fluorescence signal; at 115 µM (top of the series); note: 0% is about no effect
Procedure, shortened: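 Fluorescence at 560 nm excitation, 665 nm emission reports UDG signal after 250 mM NaOH (2x) addition and 30 min. Enzymes (AID 1 uM, UDG 2 U/mL, at 4/3x) preincubated 10 min with compound, then 4 h with 4x 250 nM DJC20/DJC23 substrate at room temperature.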

[10] = target: Single-stranded DNA cytosine deaminase (Homo sapiens) (UniProt Q9GZX7); assay: Validation qHTS assay for inhibitors of Activation Induced Cytidine Deaminase (AID): AID signal (AID 1347429); settings: Recombinant AID, FRET ssDNA deamination with UDG, fluorescence; at 115 µM (top of the series); note: % is set by controls: 0 for no effect and ±100 for the full control effect
Procedure, shortened: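 Compounds (up to 114 uM final) are tested against AID plus UDG using DJC20/DJC23 FRET substrate. Reactions incubate 4 hr at room temperature, receive NaOH for 30 min, and are read at Ex 540/Em 590 nm.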

[11] = target: Calcium and integrin-binding protein 1 (Homo sapiens) (UniProt Q99828); assay: Validation qHTS for Identification of Calcium Integrin Binding protein 1 (CIB1) Competitor (AID 1508618); settings: CIB1-GST / FITC-alphaIIb peptide fluorescence polarization; at 114 µM (top of the series); note: % is set by controls: 0 for no effect and ±100 for the full control effect
Procedure, shortened: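 In this qHTS validation, the LOPAC set (up to 114 uM) was tested for blocking CIB1 binding to a fluorescein-tagged alphaIIb peptide, with FP detection at 480/540 nm.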

[12] = target: Metallo-beta-lactamase type 2 (Klebsiella pneumoniae) (UniProt C7C422); assay: qHTS to identify inhibitors of the New Delhi Metallo-beta-lactamase (NDM): assay validation screen against the NCATS LOPAC Collection (AID 1794843); settings: NDM-1 enzyme, nitrocefin hydrolysis, absorbance 485 nm; at 38.4 µM (top of the series)
Procedure, shortened: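 Nitrocefin hydrolysis (50 uM substrate stock) by NDM-1, 2 nM final, was followed by 485 nm absorbance after compound preincubation; buffer was 50 mM HEPES pH 7.0, 1 uM ZnSO4, 0.01% Tween20.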

[13] = target: Glutathione peroxidase 1 (Homo sapiens) (UniProt P07203); assay: Primary qHTS Assay for Inhibitors of Recombinant Selenoprotein Glutathione Peroxidase 1 (GPX1) (AID 1845191); settings: recombinant GPX1, GR-coupled NADPH fluorescence, 15 min; activity, negative = inhibition: at 48.8 µM (top of the series); note: nearly all actives have a fitted effect of over 65% in size
Procedure, shortened: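 NADPH consumption tracked by fluorescence at 340/450 nm between t=0 and t=15 min, room temperature. Final mix: 10 nM GPX1, 100 nM glutathione reductase, 1 mM GSH, 0.5 mM NADPH, 0.5 mM cumene hydroperoxide, 0.01% BSA; 30 min compound–enzyme preincubation.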

[14] = target: Phospholipid hydroperoxide glutathione peroxidase GPX4 (Homo sapiens) (UniProt P36969); assay: Primary qHTS Assay for Inhibitors of Recombinant Selenoprotein Glutathione Peroxidase 4 (GPX4) (AID 1845192); settings: recombinant GPX4, GR-coupled NADPH fluorescence, 15 min; activity change, negative = inhibition: at 50 µM (top of the series); note: nearly all actives have a fitted effect of over 65% in size
Procedure, shortened: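 NADPH consumption followed by fluorescence at 340/450 nm, t=0 and after 15 min at room temperature. Reaction started with cumene hydroperoxide (0.5 mM final) after 30 min compound–GPX4 preincubation; final 200 nM GPX4, 100 nM GR, 1 mM GSH, 0.5 mM NADPH.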

CN(C(=O)Cc1ccc(Cl)c(Cl)c1)[C@H]1CCCC[C@@H]1N1CCCC1
inactive: activity change, negative = inhibition [1] 1.19% and 0.659% | activity change, negative = inhibition [2] -0.724% and -0.99% | activity change, negative = inhibition [3] -2.36% and -4.32% | activation [4] -18.2% and -3.31% | activity change, negative = inhibition [5] -15.8% and -30% | activity, negative = inhibition [6] -18.4% and -13.1% | activity change, negative = inhibition [7] 1.22% and 8.67% | activity, positive = inhibition (GFP gain) [8] 2.05% and -0.438% | activity, negative = inhibition [9] -4.97% and -4.75% | activity change, negative = inhibition [10] -0.999% and 5.97% | activity change, negative = inhibition [11] -1.51% and 2.73% | activity change, negative = inhibition [12] 4.8% and -0.921% | activity, negative = inhibition [13] 3.42% | outcome [13] | activity change, negative = inhibition [14] 0.0869% | outcome [14]
